{
  "sequences": {"note": "Amino acid sequences for entries named in this document (tags omitted). A change or cut given only in a name is not applied to a line headed by its entry. Residues count along the entry.", "UniProt Q08722, 19-139": "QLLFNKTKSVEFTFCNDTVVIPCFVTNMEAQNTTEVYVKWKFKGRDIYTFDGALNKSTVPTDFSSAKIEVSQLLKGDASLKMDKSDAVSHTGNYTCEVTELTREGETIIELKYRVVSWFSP"},
  "source": "patent US20190315834A1",
  "about": "(KAHR MEDICAL, published 2019)",
  "target": "T1, CD47:Fc (Sino Biological, cat #12283-H02H) (UniProt Q08722, in part)",
  "T1 construct": "Bought reagent, loaded on the BLI biosensor; not shown: Fc portion of the bought reagent",
  "experiment": "bio-layer interferometry (Blitz), biosensor pre-loaded with CD47:Fc",
  "experimental": "The binding of the SIRPα domain of the molecule to CD47 and the binding of the CD70 domain of the molecule to CD27 was determined by the bio-layer interferometry Blitz® assay. Materials—His-tagged SIRPα-CD70 protein (SEQ ID NO: 5) produced as described in Experiment 1A hereinabove; CD47:FC (Sino Biological, cat #12283-H02H), PD1-CD70 protein (SEQ ID NO: 6, as a negative control),\nMethods and results—The biosensor was pre-loaded with CD47:Fc, which led to a stable association plateau (FIG. 3). Upon subsequent incubation with His-tagged SIRPα-CD70 protein (SEQ ID NO: 5) a rapid association of the His-tagged SIRPα-CD70 protein (SEQ ID NO: 5) to CD47:Fc was detected (FIG. 3, upper line). […] Upon reaching a stable association plateau, the biosensor was washed with medium to determine the off-rate of the His-tagged SIRPα-CD70 protein from CD47:Fc.",
  "data": [
    {"binder": "PD1-CD70 protein (SEQ ID NO: 6) (other, Negative control fusion protein; also called control protein PD1-CD70) HHHHHHPGWFLDSPDRPWNPPTFSPALLVVTEGDNATFTCSFSNTSESFVLNWYRMSPSNQTDKLAAFPEDRSQPGQDCRFRVTQLPNGRDFHMSVVRARRNDSGTYLCGAISLAPKAQIKESLRAELRVTERRAEVPTAHPSPSPRPAGQFQTLVGQRFAQAQQQLPLESLGWDVAELQLNHTGPQQDPRLYWQGGPALGRSFLHGPELDKGQLRIHRDGIYMVHIQVTLAICSSTTASRHHPTTLAVGICSPASRSISLLRLSFHQGCTIASQRLTPLARGDTLCTNLTGTLLPSRNTDETFFGVQWVRP", "values": [
      {"measurement": "binding result", "value": "no binding"}
    ]}
  ]
}
